{"source": "patent US8741886B2", "about": "“Baclofen and acamprosate based therapy of neurological disorders” (Pharnext, priority 2011, dated 2014)", "test_system": "Human brain microvascular endothelial cerebral cells (HBMEC)", "experiment": "Toxicity of human Aβ1-42 peptide on HBMEC: total length of capillary network", "type": "cell-based", "conditions": "VEGF 10 nM, 1 h pre-treatment; Aβ1-42 2.5 μM, 18 h", "procedure": "Human brain microvascular endothelial cell cultures were used to study the protection afforded by candidate compound(s) on Aβ1-42 toxicity.\nHuman brain microvascular endothelial cerebral cells (HBMEC, ScienCell Ref: 1000, frozen at passage 10) were rapidly thawed in a waterbath at +37° C. The supernatant was immediately put in 9 ml Dulbecco's modified Eagle's medium (DMEM; Pan Biotech ref: P04-03600) containing 10% of foetal calf serum (FCS; GIBCO ref 10270-106). […]\n• Negative Control: medium alone+0.1% DMSO • Intoxication: amyloid-β1-42 (2.5 μM) for 18 h • Positive control: VEGF-165 (10 nM) (1 reference compound/culture) 1 hr before the Aβ1-42 (2.5 μM) addition for a 18 h incubation time. • Test compounds: Test compound(s) 1 hr before the Aβ1-42 (2.5 μM) addition for a 18 h incubation time. Capillary Network Quantification\nPer well, 2 pictures with 4× lens were taken using InCell Analyzer™ 1000 (GE Healthcare) in light transmission. […] The total length of capillary network was assessed.\nData were expressed in percentage of control conditions (no intoxication, no amyloid=100%) in order to express the amyloid injury. All values were expressed as mean+/−SEM (s.e.mean) of the 3 cultures (n=6 wells per condition). […]", "data": [{"substance": "VEGF", "values": [{"measurement": "protection of capillary network (% of capillary network compared to amyloid intoxication)", "result": 70, "unit": "%"}]}]}
